Values of other authors as cited in US20160361270A1, “UNIFORM, HIGH BASIS WEIGHT NANOFIBER FABRICS FOR MEDICAL APPLICATIONS” (University of Washington, priority 2015, published 2016).

## maraviroc
  pKa: 8
